The text below walks through data of article PMC4452637, “Identification of positron emission tomography (PET) tracer candidates by prediction of the target-bound fraction in the brain” (EJNMMI Research, 2014).

In one series the target is GABA. Also on record: method as in ref 33, 74 (Additional file 1). As to conditions: literature value; 74 (Additional file 1); cited from earlier work.
A short description of series [1]: Unbound fraction in brain homogenate (fu,brain); Vu,brain calculated from it with pH-partition model. The note with it: calculated from reported fu,brain and tracer pKa with pH-partition model (tracers with fu,brain tabulated, footnote h of Table S1).
Details of series [2]: method as in ref 10 (a number printed in a supplementary file, which may have a reference list of its own: not looked up in the article's list). As to conditions: unbound fraction in homogenized brain tissue, reported; cited from earlier work.
A further series concerns SERT. The series is described as follows: PET imaging of specific target binding (BPND, tracer functionality). As to conditions: in vivo.

Molecules are shown by their SMILES.

Take `CN1C(=O)CN=C(c2ccccc2)c2cc(Cl)ccc21` [[^11C]Diazepam]: the Kd – broadly, the free concentration of one partner at which half of the binding sites on the other are occupied at equilibrium, for simple one-to-one binding – at GABA was 7 nM.
`[11CH3]NC(=O)c1ccc(Oc2ccc3c(c2)CCN(C2CCC2)CC3)nc1` [[^11C]GSK189254A]: the “V u,brain” value in series [1] is 8.5 mL/g brain.
Turning to `CC[11CH2]N1CCO[C@@H]2c3cc(O)ccc3CCC21` (some centres unmarked) [[^11C]PHNO], in series [2], the “fu,brain” value is recorded as 0.21. For the same compound, the “V u,brain” value in series [1] was 11 mL/g brain.
Consider `[18F]c1ccc([C@@H]2CCNC[C@H]2COc2ccc3c(c2)OCO3)cc1` [[^18 F]Paroxetine], for which the “BP ND” value in the series with SERT was 0.1.
